Assay results from ChEMBL document CHEMBL1125016.

Chains of the proteins cited; added tags and fusions are not shown. Lines headed by an entry give the natural chain unless they say otherwise; changes in a name come on top.
UniProt P41144: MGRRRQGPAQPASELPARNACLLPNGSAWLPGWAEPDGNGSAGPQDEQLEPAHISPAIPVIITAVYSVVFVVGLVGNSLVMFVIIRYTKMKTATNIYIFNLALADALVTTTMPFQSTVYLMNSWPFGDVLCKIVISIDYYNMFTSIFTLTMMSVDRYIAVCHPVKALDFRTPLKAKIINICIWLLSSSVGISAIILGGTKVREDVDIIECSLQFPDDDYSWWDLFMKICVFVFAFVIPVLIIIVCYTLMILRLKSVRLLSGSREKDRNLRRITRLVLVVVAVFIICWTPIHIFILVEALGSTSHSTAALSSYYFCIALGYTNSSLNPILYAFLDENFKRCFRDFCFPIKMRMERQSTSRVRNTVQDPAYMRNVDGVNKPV
UniProt P61169, whole entry, looked up: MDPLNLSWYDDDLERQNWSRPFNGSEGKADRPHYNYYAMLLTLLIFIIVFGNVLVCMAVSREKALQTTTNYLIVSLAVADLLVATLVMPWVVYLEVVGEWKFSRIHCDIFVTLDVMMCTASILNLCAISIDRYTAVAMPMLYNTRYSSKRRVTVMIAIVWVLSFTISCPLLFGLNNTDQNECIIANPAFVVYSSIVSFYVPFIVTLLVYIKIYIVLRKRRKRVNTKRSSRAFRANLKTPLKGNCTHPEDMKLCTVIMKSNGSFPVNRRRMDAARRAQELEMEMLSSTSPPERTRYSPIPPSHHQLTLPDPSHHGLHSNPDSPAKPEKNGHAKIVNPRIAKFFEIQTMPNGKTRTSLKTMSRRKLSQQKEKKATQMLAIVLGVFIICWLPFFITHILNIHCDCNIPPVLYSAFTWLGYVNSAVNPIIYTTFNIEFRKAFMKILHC

How the values were obtained:
[1] = molecular target: T1, Kappa-type opioid receptor (Cavia porcellus, UniProt P41144); test: Affinity of compound towards Opioid receptor kappa 1 was determined in presence of [3H]U-69593. radioligand
[2] = molecular target: T1, Kappa-type opioid receptor; test: Affinity of compound towards Opioid receptor kappa 1 was determined in presence of [3H]U-69593 radioligand
D(2) dopamine receptor [3] = molecular target: T2, D(2) dopamine receptor (Rattus norvegicus, UniProt P61169); test: Affinity of compound towards dopamine-D2 receptor was determined in presence of [3H](-)-sulpiride radioligand
[4] = molecular target: T1, Kappa-type opioid receptor; test: Affinity of compound towards Opioid receptor kappa 1 was determined in presence of [3H]bremazocine radioligand
[5] = molecular target: T1, Kappa-type opioid receptor; test: Affinity of compound towards Opioid receptor kappa 1 labeled with [3H]bremazocine.
D(2) dopamine receptor [6] = molecular target: T2, D(2) dopamine receptor; test: Affinity of compound towards Dopamine receptor D2 was determined in presence of [3H](-)-sulpiride radioligand

Row | SMILES | Ki [1] [µM] | Ki [4] [µM] | further results
1 | CN(C(=O)Cc1ccc2ccccc2c1)C1CCCCC1N1CCCC1 (stereo not given) | 1.62 | – | –
2 | CN(C(=O)Cc1ccc2ccccc2c1)[C@@H]1CCCC[C@@H]1N1CCCC1 | – | 1.44 | Ki [2]: 2.21 µM; Ki (D(2) dopamine receptor [3]): 7.35 µM
3 | CN(C(=O)Cc1ccc2c(c1)OCO2)[C@H]1CCCC[C@H]1N1CCCC1 | 3.63 | – | Ki [5]: 6.99 µM
4 | CN(C(=O)Cc1ccc2ccccc2c1)[C@H]1CCCC[C@H]1N1CCCC1 | 1.67 | – | –
5 | CN(CCc1ccc(Cl)c(Cl)c1)[C@@H]1CCCC[C@@H]1N1CCCC1 | 3.79 | – | –
6 | CN(C(=O)Cc1cc(Cl)c(Cl)cc1N)[C@@H]1CCCC[C@@H]1N1CCCC1 | – | 0.523 | Ki (D(2) dopamine receptor [6]): 1.54 µM
